Biological target: Recombinant human cathepsin S (CatS) (Homo sapiens, UniProt P25774)
Experiment: biochemical

By UniProt entry, the sequences of proteins in these tests, tags left out. Residues count along the entry.
UniProt P25774, 115-331: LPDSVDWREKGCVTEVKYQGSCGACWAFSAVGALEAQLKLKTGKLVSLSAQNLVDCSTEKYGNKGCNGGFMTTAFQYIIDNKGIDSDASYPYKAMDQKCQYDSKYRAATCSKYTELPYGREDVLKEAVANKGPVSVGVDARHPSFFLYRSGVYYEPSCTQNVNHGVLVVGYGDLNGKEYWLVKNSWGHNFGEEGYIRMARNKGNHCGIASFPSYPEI

Structure (SMILES)	IC50 [nM]
CS(=O)(=O)N1CCc2c(c(-c3ccc(C(F)(F)F)c(SCC(=O)N4CCCCC4)c3)nn2CC(O)CN2CCC(c3ccccn3)CC2)C1 (stereo not shown) [Example 258, 1-[5-(Methylsulfonyl)-3-{3-[(2-oxo-2-piperidin-1-ylethyl)sulfanyl]-4-(trifluoromethyl)phenyl}-4,5,6,7-tetrahydro-1H-pyrazolo[4,3-c]pyridin-1-yl]-3-(4-pyridin-2-ylpiperidin-1-yl)propan-2-ol]	10
NC(=O)NC1CCN(CC(O)Cn2nc(-c3ccc(C(F)(F)F)c(SCCN4CCCCC4)c3)c3c2CCNC3)CC1 (stereo not shown) [Example 320, 1-{1-[2-Hydroxy-3-(3-{3-[(2-piperidin-1-ylethyl)sulfanyl]-4-(trifluoromethyl)phenyl}-4,5,6,7-tetrahydro-1H-pyrazolo[4,3-c]pyridin-1-yl)propyl]piperidin-4-yl}urea]	2260
CS(=O)(=O)NC1CCN(CC(O)Cn2nc(-c3ccc(C(F)(F)F)c(SCCN4CCC(F)(F)C4)c3)c3c2CCNC3)CC1 (stereo not shown) [Example 505, N-[1-(3-{3-[3-{[2-(3,3-Difluoropyrrolidin-1-yl)ethyl]sulfanyl}-4-(trifluoromethyl)phenyl]-4,5,6,7-tetrahydro-1H-pyrazolo[4,3-c]pyridin-1-yl}-2-hydroxypropyl)piperidin-4-yl]methanesulfonamide]	1820
CS(=O)(=O)N1CCc2c(c(-c3ccc(C(F)(F)F)c(SCCN4CCC(c5ccccc5)CC4)c3)nn2CCCN2CCC(N3CCCC3=O)CC2)C1 [Example 19, 1-{1-[3-(5-Methanesulfonyl-3-{3-[2-(4-phenyl-piperidin-1-yl)-ethylsulfanyl]-4-trifluoromethyl-phenyl}-4,5,6,7-tetrahydro-pyrazolo[4,3-c]pyridin-1-yl)-propyl]-piperidin-4-yl}-pyrrolidin-2-one]	200
CC1CCN(C[C@H](O)Cn2nc(-c3ccc(C(F)(F)F)c(SCCN4CCC(F)CC4)c3)c3c2CCN(S(C)(=O)=O)C3)CC1 [Example 474, (2S)-1-{3-[3-{[2-(4-Fluoropiperidin-1-yl)ethyl]sulfanyl}-4-(trifluoromethyl)phenyl]-5-(methylsulfonyl)-4,5,6,7-tetrahydro-1H-pyrazolo[4,3-c]pyridin-1-yl}-3-(4-methylpiperidin-1-yl)propan-2-ol]	100
CS(=O)(=O)N1CCc2c(c(-c3ccc(C(F)(F)F)c(SCCN4CCOCC4)c3)nn2CCCN2CCC(N3CCCC3=O)CC2)C1 [Example 22, 1-[1-(3-{5-Methanesulfonyl-3-[3-(2-morpholin-4-yl-ethylsulfanyl)-4-trifluoromethyl-phenyl]-4,5,6,7-tetrahydro-pyrazolo[4,3-c]pyridin-1-yl}-propyl)-piperidin-4-yl]-pyrrolidin-2-one]	270
CS(=O)(=O)N1CCc2c(c(-c3ccc(C(F)(F)F)c(SCCN4CCCCC4)c3)nn2CC(O)CN2CCOCC2)C1 (stereo not shown) [Example 160, 1-[5-(Methylsulfonyl)-3-{3-[(2-piperidin-1-ylethyl)sulfanyl]-4-(trifluoromethyl)phenyl}-4,5,6,7-tetrahydro-1H-pyrazolo[4,3-c]pyridin-1-yl]-3-morpholin-4-ylpropan-2-ol]	440
OC(CN1CCC(Oc2ncccn2)CC1)Cn1nc(-c2ccc(C(F)(F)F)c(SCCN3CCC(F)CC3)c2)c2c1CCNC2 (stereo not shown) [Example 490, 1-{3-[3-{[2-(4-Fluoropiperidin-1-yl)ethyl]sulfanyl}-4-(trifluoromethyl)phenyl]-4,5,6,7-tetrahydro-1H-pyrazolo[4,3-c]pyridin-1-yl}-3-[4-(pyrimidin-2-yloxy)piperidin-1-yl]propan-2-ol]	1030
CCS(=O)(=O)N1CCc2c(c(-c3ccc(C(F)(F)F)c(SCCN4CCCCC4)c3)nn2CC(O)CN2CCC(N3CCCC3=O)CC2)C1 (stereo not shown) [Example 235, 1-(1-{3-[5-(Ethylsulfonyl)-3-{3-[(2-piperidin-1-ylethyl)sulfanyl]-4-(trifluoromethyl)phenyl}-4,5,6,7-tetrahydro-1H-pyrazolo[4,3-c]pyridin-1-yl]-2-hydroxypropyl}piperidin-4-yl)pyrrolidin-2-one]	40
CS(=O)(=O)N1CCc2c(c(-c3ccc(C(F)(F)F)c(SCCN4CCCCC4)c3)nn2CCCN2CCCC2)C1 [Example 57, 5-Methanesulfonyl-3-[3-(2-piperidin-1-yl-ethylsulfanyl)-4-trifluoromethyl-phenyl]-1-(3-pyrrolidin-1-yl-propyl)-4,5,6,7-tetrahydro-1H-pyrazolo[4,3-c]pyridine]	520
CS(=O)(=O)N1CCc2c(c(-c3ccc(Cl)c(SCCc4cnccn4)c3)nn2CCCN2CCOCC2)C1 [Example 138, 3-[4-Chloro-3-(2-pyrazin-2-yl-ethylsulfanyl)-phenyl]-5-methanesulfonyl-1-(3-morpholin-4-yl-propyl)-4,5,6,7-tetrahydro-1H-pyrazolo[4,3-c]pyridine]	3100
COc1ccc(N2CCN(CC(O)Cn3nc(-c4ccc(C(F)(F)F)c(SCCN5CCCCC5)c4)c4c3CCNC4)CC2)cc1 (stereo not shown) [Example 452, 1-{4-[4-(Methyloxy)phenyl]piperazin-1-yl}-3-(3-{3-[(2-piperidin-1-ylethyl)sulfanyl]-4-(trifluoromethyl)phenyl}-4,5,6,7-tetrahydro-1H-pyrazolo[4,3-c]pyridin-1-yl)propan-2-ol]	1660

Second part, the compound after the results:

IC50 [nM]	Structure (SMILES)
80	CC(=O)NC1CCN(C[C@H](O)Cn2nc(-c3ccc(C(F)(F)F)c(SCCN4CCCC(F)C4)c3)c3c2CCN(S(C)(=O)=O)C3)CC1 (stereo partly drawn) [Example 655, N-{1-[(2S)-3-{3-[3-{[2-(3-Fluoropiperidin-1-yl)ethyl]sulfanyl}-4-(trifluoromethyl)phenyl]-5-(methylsulfonyl)-4,5,6,7-tetrahydro-1H-pyrazolo[4,3-c]pyridin-1-yl}-2-hydroxypropyl]piperidin-4-yl}acetamide]
130	CS(=O)(=O)N1CCc2c(c(-c3ccc(C(F)(F)F)c(SCCN4CCCC(F)(F)C4)c3)nn2C[C@@H](O)CN2CC3CCCC3C2)C1 (stereo partly drawn) [Example 618, (2S)-1-{3-[3-{[2-(3,3-Difluoropiperidin-1-yl)ethyl]sulfanyl}-4-(trifluoromethyl)phenyl]-5-(methylsulfonyl)-4,5,6,7-tetrahydro-1H-pyrazolo[4,3-c]pyridin-1-yl}-3-(hexahydrocyclopenta[c]pyrrol-2(1H)-yl)propan-2-ol]
170	CS(=O)(=O)N1CCc2c(c(-c3ccc(C(F)(F)F)c(SCCN4CCOCC4)c3)nn2CC(O)CN2CCC(NC(=O)CO)CC2)C1 (stereo not shown) [Example 657, 2-Hydroxy-N-(1-{2-hydroxy-3-[5-(methylsulfonyl)-3-{3-[(2-morpholin-4-ylethyl)sulfanyl]-4-(trifluoromethyl)phenyl}-4,5,6,7-tetrahydro-1H-pyrazolo[4,3-c]pyridin-1-yl]propyl}piperidin-4-yl)acetamide]
1390	CCN1CCc2c(c(-c3ccc(C(F)(F)F)c(SCC(=O)N4CCCC4)c3)nn2CC(O)CN2CCN(c3ccccc3O)CC2)C1 (stereo not shown) [Example 544, 2-{4-[3-(5-Ethyl-3-{3-[(2-oxo-2-pyrrolidin-1-ylethyl)sulfanyl]-4-(trifluoromethyl)phenyl}-4,5,6,7-tetrahydro-1H-pyrazolo[4,3-c]pyridin-1-yl)-2-hydroxypropyl]piperazin-1-yl}phenol]
2120	CC(C)N1CCN(CC(O)Cn2nc(-c3ccc(C(F)(F)F)c(SCCN4CCOCC4)c3)c3c2CCN(S(C)(=O)=O)C3)CC1 (stereo not shown) [Example 554, 1-[4-(1-Methylethyl)piperazin-1-yl]-3-[5-(methylsulfonyl)-3-{3-[(2-morpholin-4-ylethyl)sulfanyl]-4-(trifluoromethyl)phenyl}-4,5,6,7-tetrahydro-1H-pyrazolo[4,3-c]pyridin-1-yl]propan-2-ol]
190	CC(C)CNCCSc1cc(-c2nn(CCCN3CCC(N4CCCC4=O)CC3)c3c2CN(S(C)(=O)=O)CC3)ccc1C(F)(F)F [Example 592, 1-[1-(3-{3-[3-({2-[(2-Methylpropyl)amino]ethyl}sulfanyl)-4-(trifluoromethyl)phenyl]-5-(methylsulfonyl)-4,5,6,7-tetrahydro-1H-pyrazolo[4,3-c]pyridin-1-yl}propyl)piperidin-4-yl]pyrrolidin-2-one]
120	CC(=O)N1CCN(CCSc2cc(-c3nn(CC(O)CN4CCN(c5ccccc5C#N)CC4)c4c3CN(S(C)(=O)=O)CC4)ccc2C(F)(F)F)CC1 (stereo not shown) [Example 865, 2-[4-(3-{3-[3-{[2-(4-Acetylpiperazin-1-yl)ethyl]sulfanyl}-4-(trifluoromethyl)phenyl]-5-(methylsulfonyl)-4,5,6,7-tetrahydro-1H-pyrazolo[4,3-c]pyridin-1-yl}-2-hydroxypropyl)piperazin-1-yl]benzonitrile]
170	CS(=O)(=O)N1CCc2c(c(-c3ccc(C(F)(F)F)c(SCCN4CCCC(F)(F)C4)c3)nn2C[C@@H](O)CN2CCOCC2)C1 [Example 513, (2S)-1-{3-[3-{[2-(3,3-Difluoropiperidin-1-yl)ethyl]sulfanyl}-4-(trifluoromethyl)phenyl]-5-(methylsulfonyl)-4,5,6,7-tetrahydro-1H-pyrazolo[4,3-c]pyridin-1-yl}-3-morpholin-4-ylpropan-2-ol]
160	CC1(O)CCN(C[C@H](O)Cn2nc(-c3ccc(C(F)(F)F)c(SCCN4CCC(F)(F)CC4)c3)c3c2CCN(S(C)(=O)=O)C3)CC1 [Example 632, 1-[(2S)-3-{3-[3-{[2-(4,4-Difluoropiperidin-1-yl)ethyl]sulfanyl}-4-(trifluoromethyl)phenyl]-5-(methylsulfonyl)-4,5,6,7-tetrahydro-1H-pyrazolo[4,3-c]pyridin-1-yl}-2-hydroxypropyl]-4-methylpiperidin-4-ol]
190	CS(=O)(=O)N1CCc2c(c(-c3ccc(C(F)(F)F)c(SCCN4CCC(F)CC4)c3)nn2CC(O)CN2CCC(c3n[nH]c(=O)[nH]3)CC2)C1 (stereo not shown) [Example 758, 5-[1-(3-{3-[3-{[2-(4-Fluoropiperidin-1-yl)ethyl]sulfanyl}-4-(trifluoromethyl)phenyl]-5-(methylsulfonyl)-4,5,6,7-tetrahydro-1H-pyrazolo[4,3-c]pyridin-1-yl}-2-hydroxypropyl)piperidin-4-yl]-2,4-dihydro-3H-1,2,4-triazol-3-one]

From patent US20090099157A1, “TETRAHYDRO-PYRAZOLO-PYRIDINE THIOETHER MODULATORS OF CATHEPSIN S” (priority 2007, published 2009)
